According to BigSolDB 2.1:

Details: in n-octanol

O=C(O)c1ccccc1
Details	solubility (mole fraction)
295.3 K	0.167
297.65 K	0.18
301.85 K	0.203
304.25 K	0.211
305.25 K	0.219
307.75 K	0.227
309.35 K	0.235
312.3 K	0.25
313.95 K	0.266
317.15 K	0.279
320.85 K	0.29
322.15 K	0.3
